Results taken from patent publication US12240855B2, “Pyrrolopyrazole derivative” (DAIICHI SANKYO COMPANY, LIMITED, priority 2019, dated 2025).

Tests used:
HCT116 cells = assay: cells; conditions: Homo sapiens, HCT-116, 72 h, read-out: Test Example 3 HCT116 GI50
[1] = system: PTDSS2 gene-disrupted (PTDSS2-KO) HCT116 cells; assay: cells; conditions: Homo sapiens, HCT-116, 72 h, read-out: Test Example 3 PTDSS2-KO HCT116 GI50

Row | SMILES | GI50 (HCT116 cells) | GI50 [1]
1 | CC(F)(F)CN1C(=O)c2[nH]nc(-c3cc(F)cc4[nH]c(=O)oc34)c2C1c1cccc(Oc2ccc(F)cc2)c1 (single isomer, unassigned) [Example 56, 7-{5-(2,2-Difluoropropyl)-4-[3-(4-fluorophenoxy)phenyl]-6-oxo-1,4,5,6-tetrahydropyrrolo[3,4-c]pyrazol-3-yl}-5-fluoro-1,3-benzoxazol-2(3H)-one (enantiomer)] | 21 µM | 0.052 µM
2 | CC(F)(F)CN1C(=O)c2[nH]nc(-c3cccc4[nH]c(=O)oc34)c2C1c1ccc(Oc2ccc(Cl)c(Cl)c2)cc1 (single isomer, unassigned) [Example 59, 7-[4-[4-(3,4-Dichlorophenoxy)phenyl]-5-(2,2-difluoropropyl)-6-oxo-1,4,5,6-tetrahydropyrrolo[3,4-c]pyrazol-3-yl]-1,3-benzoxazol-2(3H)-one (enantiomer)] | 8.2 µM | 0.026 µM
3 | CC(F)(F)CN1C(=O)c2[nH]nc(-c3cccc4[nH]c(=O)oc34)c2C1c1ccc(Oc2ccc(Cl)cc2)c(Cl)c1 (single isomer, unassigned) [Example 60, 7-{4-[3-Chloro-4-(4-chlorophenoxy)phenyl]-5-(2,2-difluoropropyl)-6-oxo-1,4,5,6-tetrahydropyrrolo[3,4-c]pyrazol-3-yl}-1,3-benzoxazol-2-(3H)-one (enantiomer)] | 3.5 µM | 0.059 µM
4 | CC(F)(F)CN1C(=O)c2[nH]nc(-c3cccc4[nH]c(=O)oc34)c2C1c1ccc(Oc2ccc(OC(F)(F)F)c(Cl)c2)c(C(F)(F)F)c1 (single isomer, unassigned) [Example 61, 7-[4-{4-[3-Chloro-4-(trifluoromethoxy)phenoxy]-3-(trifluoromethyl)phenyl}-5-(2,2-difluoropropyl)-6-oxo-1,4,5,6-tetrahydropyrrolo[3,4-c]pyrazol-3-yl]-1,3-benzoxazol-2(3H)-one (enantiomer)] | 7.1 µM | 0.076 µM
5 | Cc1cc(C2c3c(-c4cccc5[nH]c(=O)oc45)n[nH]c3C(=O)N2CC(C)(F)F)c(F)cc1Oc1cc(C(F)(F)F)cc(C(F)(F)F)c1 (single isomer, unassigned) [Example 62, 7-[4-{4-[3,5-Bis(trifluoromethyl)phenoxy]-2-fluoro-5-methylphenyl}-5-(2,2-difluoropropyl)-6-oxo-1,4,5,6-tetrahydropyrrolo[3,4-c]pyrazol-3-yl]-1,3-benzoxazol-2(3H)-one (enantiomer)] | 11 µM | 0.014 µM
6 | CC(F)(F)CN1C(=O)c2[nH]nc(-c3cccc4[nH]c(=O)oc34)c2C1c1ccc(Oc2ccc(OC(F)(F)F)cc2)cc1F (single isomer, unassigned) [Example 63, 7-[5-(2,2-Difluoropropyl)-4-{2-fluoro-4-[4-(trifluoromethoxy)phenoxy]phenyl}-6-oxo-1,4,5,6-tetrahydropyrrolo[3,4-c]pyrazol-3-yl]-1,3-benzoxazol-2(3H)-one (enantiomer)] | 7.7 µM | 0.02 µM
7 | Cc1cc(C2c3c(-c4cccc5[nH]c(=O)oc45)n[nH]c3C(=O)N2CC(C)(F)F)c(F)cc1Oc1ccc(OC(F)(F)F)cc1 (single isomer, unassigned) [Example 64, 7-[5-(2,2-Difluoropropyl)-4-{2-fluoro-5-methyl-4-[4-(trifluoromethoxy)phenoxy]phenyl}-6-oxo-1,4,5,6-tetrahydropyrrolo[3,4-c]pyrazol-3-yl]-1,3-benzoxazol-2(3H)-one (enantiomer)] | 8.3 µM | 0.015 µM
8 | CC(F)(F)CN1C(=O)c2[nH]nc(-c3cccc4[nH]c(=O)oc34)c2C1c1ccc(Oc2ccc(OC(F)(F)F)c(Cl)c2)cc1F (single isomer, unassigned) [Example 65, 7-[4-{4-[3-Chloro-4-(trifluoromethoxy)phenoxy]-2-fluorophenyl}-5-(2,2-difluoropropyl)-6-oxo-1,4,5,6-tetrahydropyrrolo[3,4-c]pyrazol-3-yl]-1,-benzoxazol-2(3H)-one (enantiomer)] | 7.9 µM | 0.016 µM
9 | Cc1cc(C2c3c(-c4cccc5[nH]c(=O)oc45)n[nH]c3C(=O)N2CC(C)(F)F)ccc1Oc1ccc(OC(F)(F)F)c(Cl)c1 (single isomer, unassigned) [Example 67, 7-[4-{4-[3-Chloro-4-(trifluoromethoxy)phenoxy]-3-methylphenyl}-5-(2,2-difluoropropyl)-6-oxo-1,4,5,6-tetrahydropyrrolo[3,4-c]pyrazol-3-yl]-1,3-benzoxazol-2(3H)-one (enantiomer)] | 8.3 µM | 0.032 µM
10 | CC(F)(F)CN1C(=O)c2[nH]nc(-c3cccc4[nH]c(=O)oc34)c2C1c1ccc(Oc2ccc(OC(F)(F)F)c(Cl)c2)c(OC(F)(F)F)c1 (single isomer, unassigned) [Example 68, 7-[4-{4-[3-Chloro-4-(trifluoromethoxy)phenoxy]-3-(trifluoromethoxy)phenoxy}-5-(2,2-difluoropropyl)-6-oxo-1,4,5,6-tetrahydropyrrolo[3,4-c]pyrazol-3-yl]-1,3-benzoxazol-2(3H)-one (enantiomer)] | 5.1 µM | 0.07 µM
11 | CC(F)(F)CN1C(=O)c2[nH]nc(-c3cccc4[nH]c(=O)oc34)c2C1c1ccc(Oc2ccc(OC(F)(F)F)cc2)cc1Cl (single isomer, unassigned) [Example 69, 7-[4-{2-Chloro-4-[4-(trifluoromethoxy)phenoxy]phenyl}-5-(2,2-difluoropropyl)-6-oxo-1,4,5,6-tetrahydropyrrolo[3,4-c]pyrazol-3-yl]-1,3-benzoxazol-2(3H)-one (enantiomer)] | 8.1 µM | 0.066 µM
12 | Cc1cc(C2c3c(-c4cccc5[nH]c(=O)oc45)n[nH]c3C(=O)N2CC(C)(F)F)ccc1Oc1ccc(OC(F)(F)F)cc1 (single isomer, unassigned) [Example 70, 7-[5-(2,2-Difluoropropyl)-4-{3-methyl-4-[4-(trifluoromethoxy)phenoxy]phenyl}-6-oxo-1,4,5,6-tetrahydropyrrolo[3,4-c]pyrazol-3-yl]-1,3-benzoxazol-2(3H)-one (enantiomer)] | 7.8 µM | 0.031 µM
13 | CC(F)(F)CN1C(=O)c2[nH]nc(-c3cccc4[nH]c(=O)oc34)c2C1c1ccc(Oc2ccc(OC(F)(F)F)cc2)c(OCCCC(F)(F)F)c1 (single isomer, unassigned) [Example 71, 7-[5-(2,2-Difluoropropyl)-6-oxo-4-{3-(4,4,4-trifluorobutoxy)-4-[4-(trifluoromethoxy)phenoxy]phenyl}-1,4,5,6-tetrahydropyrrolo[3,4-c]pyrazol-3-yl]-1,3-benzoxazol-2(3H)-one (enantiomer)] | 3.6 µM | 0.019 µM
14 | CC(F)(F)CN1C(=O)c2[nH]nc(-c3cccc4[nH]c(=O)oc34)c2C1c1ccc(Oc2ccc(OC(F)(F)F)c(Cl)c2)c(OCCCC(F)(F)F)c1 (single isomer, unassigned) [Example 81, 7-[4-{4-[3-Chloro-4-(trifluoromethoxy)phenoxy]-3-(4,4,4-trifluorobutoxy)phenyl}-5-(2,2-difluoropropyl)-6-oxo-1,4,5,6-tetrahydropyrrolo[3,4-c]pyrazol-3-yl]-1,3-benzoxazol-2(3H)-one (enantiomer)] | 3 µM | 0.015 µM
15 | CC(F)(F)CN1C(=O)c2[nH]nc(-c3cccc4[nH]c(=O)oc34)c2C1c1ccc(OCc2cc(C(F)(F)F)cc(C(F)(F)F)c2)cc1 (single isomer, unassigned) [Example 82, 7-[4-(4-{[3,5-Bis(trifluoromethyl)benzyl]oxy}phenyl)-5-(2,2-difluoropropyl)-6-oxo-1,4,5,6-tetrahydropyrrolo[3,4-c]pyrazol-3-yl]-1,3-benzoxazol-2(3H)-one (enantiomer)] | 12 µM | 0.022 µM
16 | CC(F)(F)CN1C(=O)c2[nH]nc(-c3cccc4[nH]c(=O)oc34)c2C1c1ccc(Oc2ccc3onc(C(F)(F)F)c3c2)cc1 (single isomer, unassigned) [Example 84, 7-[5-(2,2-Difluoropropyl)-6-oxo-4-(4-{[3-(trifluoromethyl)-1,2-benzoxazol-5-yl]oxy}phenyl)-1,4,5,6-tetrahydropyrrolo[3,4-c]pyrazol-3-yl]-1,3-benzoxazol-2(3H)-one(enantiomer)] | 10 µM | 0.035 µM
17 | C[C@@H](Oc1ccc(C2c3c(-c4cccc5[nH]c(=O)oc45)n[nH]c3C(=O)N2CC(C)(F)F)cc1)c1ccccc1 (single isomer, unassigned) [Example 85] | 11 µM | 0.05 µM
18 | CC(F)(F)CN1C(=O)c2[nH]nc(-c3cccc4[nH]c(=O)oc34)c2C1c1cccc(Oc2ccc(C(F)(F)F)cc2C(F)(F)F)c1 (single isomer, unassigned) [Example 86, 7-[4-{3-[2,4-Bis(trifluoromethyl)phenoxy]phenyl}-5-(2,2-difluoropropyl)-6-oxo-1,4,5,6-tetrahydropyrrolo[3,4-c]pyrazol-3-yl]-1,3-benzoxazol-2(3H)-one (enantiomer)] | 12 µM | 0.055 µM
19 | CC(F)(F)CN1C(=O)c2[nH]nc(-c3cccc4[nH]c(=O)oc34)c2C1c1ccc(Oc2ccc(CC(F)(F)F)cc2)cc1 (single isomer, unassigned) [Example 87, 7-[5-(2,2-Difluoropropyl)-6-oxo-4-{4-[4-(2,2,2-trifluoroethyl)phenoxy]phenyl}-1,4,5,6-tetrahydropyrrolo[3,4-c]pyrazol-3-yl]-1,3-benzoxazol-2(3H)-one (enantiomer)] | 3.1 µM | 0.054 µM
20 | CC(F)(F)CN1C(=O)c2[nH]nc(-c3cccc4[nH]c(=O)oc34)c2C1c1ccc(Oc2ccc(OC(F)(F)F)cc2)cc1 (single isomer, unassigned; (-)) [Example 30, (−)-7-[5-(2,2-difluoropropyl)-6-oxo-4-{4-[4-(trifluoromethoxy)phenoxy]phenyl}-1,4,5,6,-tetrahydropyrrolo[3,4-c]pyrazol-3-yl]-1,3-benzoxazol-2-(3H)-one] | 6.3 µM | 0.041 µM
